In PubChem BioAssay AID2023 (NMMLSC, 2009):
Only a part is listed here, and it is no random draw. Active and inactive are the calls of the source.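 The calls were made as follows: active = GFP response vs DMSO above a set limit, about the screen mean plus 3 SD (cut at about 150% in these data); inconclusive = under 70 cell events counted for the yeast strain; inactive = the rest.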

Experiment: modulators of LAP4-GFP expression in yeast, primary screen, S. cerevisiae, multiplex flow cytometry, MLPCN library (AID 2023)
Settings: 3 h, at 10 µM, hits give high values, median GFP as percent of DMSO wells

Row | SMILES | GFP response vs DMSO
1 | O=C(NC(Sc1ccncn1)C(Cl)(Cl)Cl)c1ccccc1 (stereo unspecified) | inactive: 92.4%
2 | CC(C)CC(=O)NC(Sc1ccc(Cl)cc1)C(Cl)(Cl)Cl (stereo unspecified) | inactive: 102%
3 | Nc1cc(N)c2nonc2c1[N+](=O)[O-] | inactive: 109%
4 | Clc1ccc(Cl)c(NC2=NCC(CBr)S2)c1 (stereo unspecified) | inactive: 84.4%
5 | CN1CCCC(OC(=O)C(c2ccccc2)c2ccccc2)C1 (stereo unspecified) | inactive: 100%
6 | COc1ccccc1OP(=O)(Nc1ccc(C)cn1)Oc1ccccc1OC | inactive: 104%
7 | Cc1ccc(OP(=O)(Nc2nccs2)Oc2ccc(C)cc2)cc1 | inactive: 109%
8 | CN(C(=O)Cc1ccc(Cl)c(Cl)c1)[C@H]1CCCC[C@H]1N1CCCC1 | inactive: 110%
9 | Cc1ccc(N/C(=N/P(=O)(N2CCOCC2)N2CCOCC2)N2CCOCC2)cc1 | inactive: 93.4%
10 | NC(=O)c1cc([N+](=O)[O-])cc([N+](=O)[O-])c1N | inactive: 89.3%
11 | CC(=O)Nc1ccc([As](=O)(O)O)c(O)c1 | inactive: 97.4%
12 | CC(=O)Nc1ccc(Oc2c([N+](=O)[O-])cc([N+](=O)[O-])cc2[N+](=O)[O-])cc1 | inactive: 97.5%
13 | Cc1ccccc1CN(C)C(=O)COC(=O)C(O)(c1ccccc1)c1ccccc1 | inactive: 105%
14 | C[C@@H]1C=CCP(=O)(Oc2ccccc2)O1 (stereo partly specified) | inactive: 112%
15 | C[C@H]1OP(=O)(Oc2ccccc2)C[C@@H]2O[C@@H]21 (stereo partly specified) | inactive: 135%
16 | CC(=O)c1ccc(N2CC2c2ccncc2)cc1 (stereo unspecified) | inactive: 106%
17 | CC(C)(C)C(=O)NC(Sc1ccccc1)C(Cl)(Cl)Cl (stereo unspecified) | inactive: 88.8%
18 | O=P1(Nc2nc3ccc(Cl)cc3s2)COc2ccccc2O1 (stereo unspecified) | inactive: 101%
19 | CCOc1ccc(C2=NCC(CBr)S2)cc1 (stereo unspecified) | inactive: 98.4%
20 | Cc1ccccc1OP(=O)(Nc1ccccn1)Oc1ccccc1C | inactive: 101%
21 | CC(NC(=O)COC(=O)C(O)(c1ccccc1)c1ccccc1)c1ccccc1 (stereo unspecified) | inactive: 104%
22 | CN(C)C(=O)Oc1noc2ccccc12 | inactive: 103%
23 | O=C(OC1CN2CCC1CC2)c1ccccc1 (stereo unspecified) | inactive: 95%

Row | SMILES | GFP response vs DMSO
24 | CCC(=O)N1C2C3N(C(=O)CC)C1C1N(C(=O)CC)C(C(N1C(=O)CC)N3C(=O)CC)N2C(=O)CC | inactive: 100%
25 | COC(=O)c1cc2c(s1)N=C(c1ccccc1)N(C)P2(=O)N1CCOCC1 (stereo unspecified) | inactive: 106%
26 | Cc1ccc(OP(=O)(Nc2ccccn2)Oc2ccc(C)cc2)cc1 | inactive: 95.5%
27 | CC(=O)NC(SC(=S)N(CC(C)C)CC(C)C)C(Cl)(Cl)Cl (stereo unspecified) | inactive: 101%
28 | c1ccc(-c2nn[nH]n2)c(-c2nn[nH]n2)c1 | inactive: 102%
29 | CCOC(=O)NC(Sc1ccccc1)C(Cl)(Cl)Cl (stereo unspecified) | inactive: 119%
30 | Cc1ccc(NP(=O)(Oc2cccc(C)c2)Oc2cccc(C)c2)nc1 | inactive: 94.3%
31 | O=C(NC1CCS(=O)(=O)C1)NP(=S)(Oc1ccccc1)Oc1ccccc1 (stereo unspecified) | inactive: 99.5%
32 | CCNC(=S)/N=C(\N)N[N+](=O)[O-] | inactive: 98.7%
33 | O=C(OC1CN2CCC1CC2)c1cccc(Cl)c1 (stereo unspecified) | inactive: 93.5%
34 | Nc1ccc([As](=O)(O)c2ccc([N+](=O)[O-])cc2)cc1 | inactive: 108%
35 | C(Cc1nn[nH]n1)Cc1nn[nH]n1 | inactive: 92.4%
36 | O=[As](O)(c1ccccc1)c1ccc(O)cc1 | inactive: 99.9%
37 | O=[N+]([O-])c1ncn(CCn2cnc([N+](=O)[O-])n2)n1 | inactive: 101%
38 | CC(=O)NC(SC(=S)N(C)C)C(Cl)(Cl)Cl (stereo unspecified) | inactive: 96.4%
39 | O=[N+]([O-])c1ccc(O)c(/C=N/Nc2ccc([N+](=O)[O-])cc2[N+](=O)[O-])c1 | inactive: 93.4%
40 | O=P(Nc1nc2ccccc2s1)(c1ccccc1)c1ccccc1 | inactive: 109%
41 | C[C@H]1OP(=O)(Oc2ccccc2)[C@H](O)[C@H](O)[C@H]1N=[N+]=[N-] (stereo partly specified) | inactive: 125%
42 | CN(C)C1(CNC(=O)c2ccc(Cl)c(S(N)(=O)=O)c2)CCCCC1 | inactive: 95.7%
43 | O=P(Nc1ccccn1)(c1ccc(Br)cc1)c1ccc(Br)cc1 | inactive: 98%
44 | c1nnnn1CCn1cnnn1 | inactive: 103%
45 | O=P(Nc1nccs1)(c1ccccc1)c1ccccc1 | inactive: 102%
46 | CC(C)C(=O)NC(Sc1ccccc1)C(Cl)(Cl)Cl (stereo unspecified) | inactive: 90.2%
